This note sets out measurements from publication PMC5786306, “An AKAP-Lbc-RhoA interaction inhibitor promotes the translocation of aquaporin-2 to the plasma membrane of renal collecting duct principal cells” (PLoS ONE, 2018).

Amino acid sequences for entries named in this document (tags omitted).
UniProt P61586, whole entry: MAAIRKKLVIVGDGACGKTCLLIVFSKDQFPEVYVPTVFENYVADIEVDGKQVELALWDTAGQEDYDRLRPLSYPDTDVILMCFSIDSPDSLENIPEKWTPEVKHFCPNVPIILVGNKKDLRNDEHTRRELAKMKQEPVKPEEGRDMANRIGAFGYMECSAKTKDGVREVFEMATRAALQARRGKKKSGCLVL

Where two headings read alike, the source gives them in different places.

The target of series [1] is interaction of AKAP-Lbc/DHPH and RhoA (Homo sapiens, UniProt P61586). The series can be described thus: Homogeneous time-resolved fluorescence (HTRF) assay. In general terms: TR-FRET usually uses a lanthanide donor and a delayed reading to cut background.
Another series can be described thus: Nephelometric solubility. The note with it: maximal solubility in DMEM + 10 % FCS; for Solubility 2 % DMSO: 2 % DMSO final; for Solubility 0.3 % DMSO: 0.3 % DMSO final.
Series [2] deals with AKAP-Lbc/DHPH-induced RhoA activation (Homo sapiens, UniProt P61586). The experiment in a line: Guanine nucleotide exchange (GEF) assay with mant-GTP (screen and secondary assays). The following applies: for ResidualPercentActivity / z_score: screening data.
The mark [3] stands for this setting: read-out: HTRF assay IC50, Suppl. Tab. 3, ± SEM, '-' = no IC50, inactive, n.d. = not determined.
[4] abbreviates: read-out: IC50_uM, Suppl. Tab. 2, tested at 1, 10 and 100 μM.
The mark [5] stands for this setting: read-out: IC50 for inhibition of AKAP-Lbc/DHPH-induced RhoA activation, nucleotide exchange assay, Fig 1D.

With `Cc1c(CCC(=O)O)c(=O)oc2cc(OCC(=O)c3ccc(Oc4ccccc4)cc3)ccc12`, the IC50 in series [1] (setting [3]) is more than 200 µM. Also, the “Solubility 2 % DMSO” value in “Nephelometric solubility” came out at 30 µM.

As to `Cc1nc(-c2ccc(F)cc2)ccc1-c1coc2cc3oc(=O)c(CCC(=O)O)c(C)c3cc12`, the IC50 in series [1] (setting [3]) was more than 200 µM. In the series “Nephelometric solubility”, the “Solubility 0.3 % DMSO” value is on record as more than 150 µM and the “Solubility 2 % DMSO” value turned out to be 10 µM.

`CCOC(=O)CCc1c(C)c2ccc(OCC(=O)c3ccc(-c4cccc(OC)c4)cc3)cc2oc1=O`: the IC50 in series [1] (setting [3]) was more than 200 µM. Besides, in the series “Nephelometric solubility”, the “Solubility 0.3 % DMSO” value is reported as 10 µM and the “Solubility 2 % DMSO” value worked out at 10 µM.

As for `Cc1oc2cc3oc(=O)cc(-c4ccccc4)c3cc2c1C`, in series [2] (Suppl. Tab. 2), the ResidualPercentActivity turned out to be 62.0% and the z_score is recorded as -2.7. The IC50 in series [2] (setting [4]) was 37 µM.

Turning to `Cc1c(C)c2ccc(OCC(=O)c3ccc(-c4ccccc4)cc3)cc2oc1=O`, the IC50 in series [1] (setting [3]) was more than 200 µM. Besides, in “Nephelometric solubility”, the “Solubility 0.3 % DMSO” value is listed as 75 µM and the “Solubility 2 % DMSO” value is listed as 90 µM.

As to `CCOC(=O)CCc1c(C)c2ccc(OCC(=O)c3ccc4cc(OC)ccc4c3)cc2oc1=O`, in series [1] (setting [3]), the IC50 was more than 200 µM. In addition, in the series “Nephelometric solubility”, the “Solubility 0.3 % DMSO” value is reported as 40 µM and the “Solubility 2 % DMSO” value was 10 µM.

In the case of `COc1ccc(-c2coc3cc4oc(=O)cc(C)c4cc23)cc1`, in series [2] (Suppl. Tab. 2), the ResidualPercentActivity came to 105.0% and the z_score was determined as 0.9. In addition, the IC50 in series [2] (setting [4]) amounted to 31 µM.

With `Cc1c(C)c2ccc(OCC(=O)c3ccc(Oc4ccccc4)cc3)cc2oc1=O`, the IC50 in series [1] (setting [3]) is more than 200 µM. In addition, in “Nephelometric solubility”, the “Solubility 0.3 % DMSO” value is on record as more than 150 µM and the “Solubility 2 % DMSO” value is on record as 100 µM.

Consider `CCOC(=O)c1c(-c2ccccc2)oc2cc(Br)c(OC(C)=O)cc12`, for which, in series [2] (Suppl. Tab. 2), the ResidualPercentActivity stood at 10.0% and the z_score is listed as -9.2. The IC50 in series [2] (setting [4]) was determined as 31 µM.

In the case of `COc1ccc2cc(C(=O)COc3ccc4c(C)c(CCC(=O)O)c(=O)oc4c3)ccc2c1`, the IC50 in series [1] (read-out: IC50 ± SEM, Table 1, HTRF, '-' = no IC50, inactive (n.d. is used separately in S3 Table)) was more than 200 µM.

For `CCOC(=O)CCc1c(C)c2ccc(OCC(=O)c3ccc(OCC(=O)c4ccc(O)cc4)cc3)cc2oc1=O`, the IC50 in series [1] (setting [3]) is more than 200 µM. Moreover, in “Nephelometric solubility”, the “Solubility 0.3 % DMSO” value is more than 150 µM and the “Solubility 2 % DMSO” value was 80 µM.

Consider `Cc1c(C)c2ccc(OCC(=O)c3ccc4ccccc4c3)cc2oc1=O`, for which, in series [1] (setting [3]), the IC50 was more than 200 µM. In the series “Nephelometric solubility”, the “Solubility 0.3 % DMSO” value was 40 µM and the “Solubility 2 % DMSO” value came out at 70 µM.

Take `CCCCc1cc(=O)oc2cc3occ(-c4ccc(OC)cc4)c3cc12`: in series [2] (Suppl. Tab. 2), the ResidualPercentActivity is recorded as -39.0% and the z_score is listed as -11.8. The IC50 in series [2] (setting [5]) amounted to 79 µM.

For the compound `COc1cc(NC(=O)Cn2c3ccccc3c(=O)c3ccccc32)cc(OC)c1OC`, in series [2] (Suppl. Tab. 2), the ResidualPercentActivity stood at 93.0% and the z_score came to 0.1. Besides, the IC50 in series [2] (setting [4]) is 40 µM.

With `CCCc1cc(=O)oc2cc3occ(-c4ccc(OC)cc4)c3cc12`, in series [2] (Suppl. Tab. 2), the ResidualPercentActivity is recorded as 1.0% and the z_score is recorded as -8.2. In series [2] (setting [5]), the IC50 was determined as 40 µM.

Regarding `CCc1cc(=O)oc2c(C)c3occ(-c4ccc(OC)cc4)c3cc12`, in series [2] (Suppl. Tab. 2), the ResidualPercentActivity is 104.0% and the z_score is recorded as 1.0. Moreover, in series [2] (setting [4]), the IC50 turned out to be 14 µM.

On to `O=c1oc2cc3occ(-c4ccc5c(c4)OCO5)c3cc2c2c1CCCC2`, for which, in series [2] (Suppl. Tab. 2), the ResidualPercentActivity is -4.0% and the z_score is on record as -8.6. The IC50 in series [2] (setting [4]) is 10 µM.

As for `Cc1nc(-c2ccc(F)cc2)ccc1C(=O)COc1ccc2c(C)c(CCC(=O)O)c(=O)oc2c1`, the IC50 in series [1] (setting [3]) was more than 200 µM. In the series “Nephelometric solubility”, the “Solubility 0.3 % DMSO” value is listed as more than 150 µM and the “Solubility 2 % DMSO” value was 20 µM.

For `CCOC(=O)CCc1c(C)c2ccc(OCC(=O)c3ccc(O)cc3)cc2oc1=O`, the IC50 in series [1] (setting [3]) is more than 200 µM. For the same compound, in “Nephelometric solubility”, the “Solubility 0.3 % DMSO” value is listed as more than 150 µM and the “Solubility 2 % DMSO” value is on record as 100 µM.

Turning to `Cc1c(CCC(=O)O)c(=O)oc2cc(OCC(=O)c3ccc(C(F)(F)F)cc3)ccc12`, the IC50 in series [1] (setting [3]) was more than 200 µM. In the series “Nephelometric solubility”, the “Solubility 0.3 % DMSO” value was more than 30 µM and the “Solubility 2 % DMSO” value was 100 µM.

Turning to `CCOC(=O)CCc1c(C)c2ccc(OCC(=O)c3ccc(N(C)C)cc3)cc2oc1=O`, in series [1] (setting [3]), the IC50 is more than 200 µM. Besides, in “Nephelometric solubility”, the “Solubility 0.3 % DMSO” value turned out to be 40 µM and the “Solubility 2 % DMSO” value worked out at 10 µM.

Take `CCOC(=O)CCc1c(C)c2ccc(OCC(=O)c3ccc(C(F)(F)F)cc3)cc2oc1=O`: in series [1] (setting [3]), the IC50 is more than 200 µM. In addition, in the series “Nephelometric solubility”, the “Solubility 0.3 % DMSO” value came out at 75 µM and the “Solubility 2 % DMSO” value came out at 50 µM.

For the compound `Cc1cc(=O)oc2c(C)c3occ(-c4ccccc4)c3cc12`, in series [2] (Suppl. Tab. 2), the ResidualPercentActivity stood at 74.0% and the z_score is reported as -1.8. Besides, the IC50 in series [2] (setting [4]) came to 21 µM.

In the case of `COc1ccc(-c2coc3cc4oc(=O)c(CCC(=O)Nc5cccnc5)c(C)c4cc23)cc1`, the IC50 in series [1] (setting [3]) was more than 200 µM. For the same compound, in “Nephelometric solubility”, the “Solubility 0.3 % DMSO” value is listed as more than 30 µM and the “Solubility 2 % DMSO” value is recorded as 10 µM.

As for `COc1ccc2cc(C(=O)COc3ccc4c(C)c(C)c(=O)oc4c3)ccc2c1`, the IC50 in series [1] (setting [3]) is more than 200 µM. In “Nephelometric solubility”, the “Solubility 0.3 % DMSO” value was 40 µM and the “Solubility 2 % DMSO” value is on record as 35 µM.

In the case of `CCOC(=O)CCc1c(C)c2ccc(OCC(=O)c3ccncc3)cc2oc1=O`, the IC50 in series [1] (setting [3]) was more than 200 µM. Further, in the series “Nephelometric solubility”, the “Solubility 0.3 % DMSO” value is given as more than 150 µM and the “Solubility 2 % DMSO” value was determined as 100 µM.

Turning to `Cc1cccc(C)c1Nc1c(-c2c[nH]c3ccccc23)nc2cnccn12`, in series [2] (Suppl. Tab. 2), the ResidualPercentActivity is -61.0% and the z_score is -9.0. Further, in series [2] (setting [4]), the IC50 was 15 µM.

Regarding `CCOC(=O)CCc1c(C)c2ccc(OCC(=O)c3ccccc3)cc2oc1=O`, the IC50 in series [1] (setting [3]) is more than 200 µM. Moreover, in the series “Nephelometric solubility”, the “Solubility 0.3 % DMSO” value is 40 µM and the “Solubility 2 % DMSO” value stood at 90 µM.

For `Cc1c(CCC(=O)O)c(=O)oc2cc3occ(-c4ccc5ccccc5c4)c3cc12`, the IC50 in series [1] (setting [3]) was more than 200 µM. In “Nephelometric solubility”, the “Solubility 0.3 % DMSO” value is given as more than 30 µM and the “Solubility 2 % DMSO” value worked out at 20 µM.

With `CCOC(=O)CCc1c(C)c2ccc(OCC(=O)c3ccc(-c4ccccc4)cc3)cc2oc1=O`, in series [1] (setting [3]), the IC50 was more than 200 µM. In “Nephelometric solubility”, the “Solubility 0.3 % DMSO” value stood at 20 µM and the “Solubility 2 % DMSO” value was determined as 10 µM.

As to `CCc1cc(=O)oc2cc3occ(C)c3cc12`, in series [2] (Suppl. Tab. 2), the ResidualPercentActivity is recorded as 71.0% and the z_score is -2.3. Further, in series [2] (setting [4]), the IC50 was 39 µM.

Regarding `COc1ccc(COc2ccc3c(C)c(CCC(=O)O)c(=O)oc3c2)cc1`, in series [1] (setting [3]), the IC50 is more than 200 µM. Also, in “Nephelometric solubility”, the “Solubility 0.3 % DMSO” value was more than 150 µM and the “Solubility 2 % DMSO” value turned out to be 100 µM.

`CCOC(=O)CCc1c(C)c2ccc(OCC(=O)c3ccc(Oc4ccccc4)cc3)cc2oc1=O`: the IC50 in series [1] (setting [3]) was more than 200 µM. Besides, in the series “Nephelometric solubility”, the “Solubility 0.3 % DMSO” value is recorded as more than 30 µM and the “Solubility 2 % DMSO” value is 30 µM.
